Read-outs that look alike come from different tables or passages of the source.
Assays:
[1] = target: T1, full length N-terminally FLAG-tagged PARP1 (Homo sapiens, UniProt P09874); assay: PARP1 biochemical DELFIA assay (auto-PARylation); conditions: read-out: PARP1 DELFIA
[2] = target: N-terminally FLAG-tagged PARP2 (amino acids 1-583) (Homo sapiens, UniProt Q9UGN5); assay: PARP2 probe displacement HTRF assay; conditions: read-out: PARP2 HTRF, binned Kd
Description: This assay was performed under identical conditions as for PARP1, except that N-terminally FLAG-tagged PARP2 (amino acids 1-583) was used instead of PARP1, and PARP1/2 binding probe was used at 10-fold probe Kd=540 nM. Data analysis was performed identical as for PARP1.

By UniProt entry, the sequences of proteins in these tests, tags left out.
UniProt P09874, whole entry: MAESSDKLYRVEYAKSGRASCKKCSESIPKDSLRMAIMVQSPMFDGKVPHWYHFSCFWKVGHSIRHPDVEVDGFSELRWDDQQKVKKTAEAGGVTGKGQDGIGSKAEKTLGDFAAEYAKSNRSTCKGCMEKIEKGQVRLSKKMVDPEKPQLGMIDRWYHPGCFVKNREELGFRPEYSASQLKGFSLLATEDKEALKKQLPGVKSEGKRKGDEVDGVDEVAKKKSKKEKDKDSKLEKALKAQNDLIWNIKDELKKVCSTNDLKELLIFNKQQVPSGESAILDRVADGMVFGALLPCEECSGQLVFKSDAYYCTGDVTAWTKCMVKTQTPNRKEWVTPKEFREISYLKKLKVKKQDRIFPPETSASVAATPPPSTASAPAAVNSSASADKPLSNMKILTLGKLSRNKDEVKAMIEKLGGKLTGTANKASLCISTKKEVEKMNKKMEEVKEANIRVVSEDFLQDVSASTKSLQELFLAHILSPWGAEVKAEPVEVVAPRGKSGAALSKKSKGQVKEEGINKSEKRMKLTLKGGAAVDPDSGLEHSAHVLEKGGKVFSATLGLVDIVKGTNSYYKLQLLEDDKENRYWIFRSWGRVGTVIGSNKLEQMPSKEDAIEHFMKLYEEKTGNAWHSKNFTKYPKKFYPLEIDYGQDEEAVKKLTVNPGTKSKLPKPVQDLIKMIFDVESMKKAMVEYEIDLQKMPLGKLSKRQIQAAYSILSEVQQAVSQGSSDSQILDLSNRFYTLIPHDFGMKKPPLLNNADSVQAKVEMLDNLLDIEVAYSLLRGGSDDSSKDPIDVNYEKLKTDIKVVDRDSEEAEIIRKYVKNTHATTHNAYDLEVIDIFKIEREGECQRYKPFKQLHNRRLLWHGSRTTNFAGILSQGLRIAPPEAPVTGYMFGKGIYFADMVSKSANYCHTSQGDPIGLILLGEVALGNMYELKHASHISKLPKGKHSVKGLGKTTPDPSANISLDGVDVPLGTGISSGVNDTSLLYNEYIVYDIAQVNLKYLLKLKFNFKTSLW
UniProt Q9UGN5, whole entry: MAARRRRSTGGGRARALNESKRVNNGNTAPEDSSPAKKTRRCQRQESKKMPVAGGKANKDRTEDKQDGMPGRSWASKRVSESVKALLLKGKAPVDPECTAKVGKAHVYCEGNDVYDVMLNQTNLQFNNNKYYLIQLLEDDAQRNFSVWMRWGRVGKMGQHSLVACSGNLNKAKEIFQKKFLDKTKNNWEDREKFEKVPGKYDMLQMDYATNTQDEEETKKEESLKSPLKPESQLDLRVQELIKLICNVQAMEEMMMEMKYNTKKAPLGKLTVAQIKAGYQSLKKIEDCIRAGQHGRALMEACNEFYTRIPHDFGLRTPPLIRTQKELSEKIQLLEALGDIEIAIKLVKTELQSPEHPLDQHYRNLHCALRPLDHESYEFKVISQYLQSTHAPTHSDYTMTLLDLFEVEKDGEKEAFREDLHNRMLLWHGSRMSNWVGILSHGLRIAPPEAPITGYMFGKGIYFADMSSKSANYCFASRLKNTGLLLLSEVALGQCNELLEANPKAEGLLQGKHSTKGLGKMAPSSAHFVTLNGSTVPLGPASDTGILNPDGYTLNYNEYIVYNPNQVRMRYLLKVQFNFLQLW

[3] = target: T1, full length N-terminally FLAG-tagged PARP1; assay: PARP1 probe displacement HTRF assay; conditions: for Selectivity: PARP1 over PARP2, ratio Kd (PARP2)/Kd (PARP1); for Kd: read-out: PARP1 HTRF, binned Kd
[4] = binned IC50, biochemical auto-PARylation assay
[5] = binned IC50, PARP1 biochemical DELFIA assay

SMILES	IC50 [1, 4] [nM]	Kd ([2]; probe displacement HTRF) [nM]	Selectivity ([3]; probe displacement HTRF)	Kd ([3]; probe displacement HTRF) [nM]	IC50 [1, 5] [nM]	Kd ([2]; PARP2 probe displacement HTRF) [nM]	Kd ([3]; PARP1 probe displacement HTRF) [nM]
CC(=O)Nc1ccc(F)cc1N1CCC(N2CCC(c3cc4ccccc4c(=O)[nH]3)C2)CC1 (centres unmarked)	10 to 100	1000 to 10000	+ (+ indicates a value of 10 to less than 50)	100 to 1000	–	–	–
CCc1c(F)cc(C2CCN(C3CCN(c4ccc(C(=O)NC)nc4)CC3)C2)[nH]c1=O (centres unmarked)	< 10	1000 to 10000	+++ (+++ indicate a value of at least 100)	< 10	–	–	–
CCc1cc(C)c(C2CCN(C3CCN(c4ccc(C(=O)NC)nc4)CC3)C2)[nH]c1=O (centres unmarked)	< 10	100 to 1000	+++ (+++ indicate a value of at least 100)	< 10	–	–	–
CCc1cc(F)c(C2CCN(C3CCN(c4ccc(C(=O)NC)nc4)CC3)C2)[nH]c1=O (centres unmarked)	< 10	100 to 1000	+++ (+++ indicate a value of at least 100)	< 10	–	–	–
CCc1ccc(C2CCN(C3CCN(c4cnc(C(=O)NC)nc4)CC3)C2)[nH]c1=O (centres unmarked)	–	–	− (− indicates a value of less than 10)	–	100 to 1000	> 10000	100 to 1000
CN(C)C(=O)c1ccc(N2CCC(N3CCC(c4nc5ccccc5c(=O)[nH]4)C3)CC2)cn1 (centres unmarked)	–	–	–	–	100 to 1000	–	–
CNC(=O)c1cc(F)c(N2CCC(N3CCC(c4cc5cccc(F)c5c(=O)[nH]4)C3)CC2)cn1 (centres unmarked)	< 10	10 to 100	+ (+ indicates a value of 10 to less than 50)	< 10	–	–	–
CNC(=O)c1ccc(N2CCC(N3CCC(c4cc5c(C(F)(F)F)n[nH]c5c(=O)[nH]4)C3)CC2)cn1 (centres unmarked)	100 to 1000	1000 to 10000	− (− indicates a value of less than 10)	100 to 1000	–	–	–
CNC(=O)c1ccc(N2CCC(N3CCC(c4cc5cc(O)ccc5c(=O)[nH]4)C3)CC2)cn1 (centres unmarked)	< 10	100 to 1000	+++ (+++ indicate a value of at least 100)	< 10	–	–	–
CNC(=O)c1ccc(N2CCC(N3CCC(c4ccc(C)c(=O)[nH]4)C3)CC2)cn1 (centres unmarked)	< 10	1000 to 10000	+++ (+++ indicate a value of at least 100)	< 10	–	–	–
CNC(=O)c1ccc(N2CCC(N3CCC(c4nc5ccccc5c(=O)[nH]4)CC3)C2)cn1 (centres unmarked)	–	–	+ (+ indicates a value of 10 to less than 50)	–	10 to 100	100 to 1000	10 to 100
CNC(=O)c1ccc(N2CCC(N3CCCC(c4ccc(C(F)(F)F)c(=O)[nH]4)C3)CC2)cn1 (centres unmarked)	–	–	+++ (+++ indicate a value of at least 100)	–	< 10	1000 to 10000	< 10
CNC(=O)c1ccc(N2CCC(N3CCCC(c4cnc(C)c(=O)[nH]4)C3)CC2)cn1 (centres unmarked)	–	–	+ (+ indicates a value of 10 to less than 50)	–	100 to 1000	> 10000	100 to 1000
O=C(NCC1COC1)c1ccc(N2CCC(N3CCC(c4nc5ccccc5c(=O)[nH]4)C3)CC2)cn1 (centres unmarked)	< 10	1000 to 10000	+++ (+++ indicate a value of at least 100)	< 10	–	–	–
CCc1ccc(C2CCN(C3CCN(c4ccc(C#N)cc4F)CC3)C2)[nH]c1=O (single isomer, unassigned)	< 10	1000 to 10000	+++ (+++ indicate a value of at least 100)	< 10	–	–	–
CCc1ccc(C2CCN(C3CCN(c4ccc(C(=O)NC)cc4C#N)CC3)C2)[nH]c1=O (single isomer, unassigned)	100 to 1000	> 10000	+ (+ indicates a value of 10 to less than 50)	100 to 1000	–	–	–
CCc1ccc(C2CCN(C3CCN(c4ccc(C(=O)NC)nc4C#N)CC3)C2)[nH]c1=O (single isomer, unassigned)	< 10	1000 to 10000	+++ (+++ indicate a value of at least 100)	< 10	–	–	–
CCc1ccc(C2CCN(C3CCN(c4ccc(C(=O)NCCF)nc4F)CC3)C2)[nH]c1=O (single isomer, unassigned)	< 10	100 to 1000	+++ (+++ indicate a value of at least 100)	< 10	–	–	–
CCc1ccc(C2CCN(C3CCN(c4cnc(C(=O)NC)c(F)c4)CC3)C2)[nH]c1=O (single isomer, unassigned)	10 to 100	1000 to 10000	+ (+ indicates a value of 10 to less than 50)	10 to 100	–	–	–
CNC(=O)c1ccc(N2CCC(N3CCC(c4cc5c(c(=O)[nH]4)CCNC5=O)C3)CC2)cn1 (single isomer, unassigned)	10 to 100	> 10000	+++ (+++ indicate a value of at least 100)	10 to 100	–	–	–
CNC(=O)c1cc(C(F)(F)F)c(N2CCC(N3CCC(c4cc5ccc(F)cc5c(=O)[nH]4)C3)CC2)cn1 (single isomer, unassigned) [292a]	10 to 100	1000 to 10000	− (− indicates a value of less than 10)	100 to 1000	–	–	–
CNC(=O)c1cc(C(F)(F)F)c(N2CCC(N3CCC(c4cc5ccc(F)cc5c(=O)[nH]4)C3)CC2)cn1 (single isomer, unassigned) [292b]	< 10	100 to 1000	+++ (+++ indicate a value of at least 100)	< 10	–	–	–
CNC(=O)c1ccc(N2CCC(N3CCC(c4cc5cccc(F)c5c(=O)[nH]4)C3)CC2)c(C#N)c1 (single isomer, unassigned) [347a]	< 10	100 to 1000	+++ (+++ indicate a value of at least 100)	< 10	–	–	–
CNC(=O)c1ccc(N2CCC(N3CCC(c4cc5cccc(F)c5c(=O)[nH]4)C3)CC2)c(C#N)c1 (single isomer, unassigned) [347b]	10 to 100	1000 to 10000	+++ (+++ indicate a value of at least 100)	10 to 100	–	–	–
CNS(=O)(=O)c1ccc(N2CCC(N3CCC(c4cc5ccccc5c(=O)[nH]4)C3)CC2)cc1 (single isomer, unassigned) [348a]	10 to 100	100 to 1000	− (− indicates a value of less than 10)	10 to 100	–	–	–
CNS(=O)(=O)c1ccc(N2CCC(N3CCC(c4cc5ccccc5c(=O)[nH]4)C3)CC2)cc1 (single isomer, unassigned) [348b]	100 to 1000	100 to 1000	− (− indicates a value of less than 10)	100 to 1000	–	–	–
O=C(NC1CC1)c1ccc(N2CCC(N3CCC(c4cc5cccc(F)c5c(=O)[nH]4)C3)CC2)c(F)n1 (single isomer, unassigned) [350a]	< 10	100 to 1000	+++ (+++ indicate a value of at least 100)	< 10	–	–	–
CNC(=O)c1ccc(N2CCC(N3CCC(c4cc5cccc(F)c5c(=O)[nH]4)C3)CC2)c(C#N)n1 (single isomer, unassigned) [351a]	< 10	1000 to 10000	+++ (+++ indicate a value of at least 100)	< 10	–	–	–
CNC(=O)c1ccc(N2CCC(N3CCC(c4cc5cccc(F)c5c(=O)[nH]4)C3)CC2)c(C#N)n1 (single isomer, unassigned) [351b]	< 10	100 to 1000	+++ (+++ indicate a value of at least 100)	< 10	–	–	–

Reference: patent US20250152585A1, “PHARMACEUTICAL COMPOUND” (Duke Street Bio Limited, priority 2022, published 2025)
